Reference: patent US20220002435A1 (IMMUNOME, published 2022)

How the values were obtained:
[1] = target: T1, human EPN1 expressed by human cell lines (human, UniProt Q9Y6I3 1-576); experiment: flow cytometry, SW480 cells (human tumor line)
T1 construct: Endogenous EPN1 of human tumour and normal cell lines, stained on live cells or on fixed and permeabilised cells, or immunoprecipitated; The cell lines were not engineered to express it; also called surface EPN1; huEPN1
T1 sequence: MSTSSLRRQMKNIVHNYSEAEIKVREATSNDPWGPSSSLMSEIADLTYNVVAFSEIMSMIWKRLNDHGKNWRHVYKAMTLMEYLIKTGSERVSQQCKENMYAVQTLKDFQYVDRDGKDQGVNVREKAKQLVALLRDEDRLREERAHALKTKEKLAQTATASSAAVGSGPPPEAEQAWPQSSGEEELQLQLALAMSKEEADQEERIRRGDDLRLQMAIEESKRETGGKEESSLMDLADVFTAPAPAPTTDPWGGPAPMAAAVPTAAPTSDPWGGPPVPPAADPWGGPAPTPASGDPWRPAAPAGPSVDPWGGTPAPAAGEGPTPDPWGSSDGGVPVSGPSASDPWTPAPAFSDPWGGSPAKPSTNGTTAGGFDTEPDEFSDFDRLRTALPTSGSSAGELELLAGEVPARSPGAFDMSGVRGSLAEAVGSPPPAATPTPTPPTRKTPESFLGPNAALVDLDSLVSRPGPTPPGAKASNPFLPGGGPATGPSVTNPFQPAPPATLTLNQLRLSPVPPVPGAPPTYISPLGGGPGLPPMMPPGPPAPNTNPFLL

[2] = target: T1, human EPN1 expressed by human cell lines; experiment: flow cytometry, LNCAP cells (human tumor line)
[3] = target: T1, human EPN1 expressed by human cell lines; experiment: flow cytometry, N87 cells (human tumor line)
[4] = target: T1, human EPN1 expressed by human cell lines; experiment: flow cytometry, ES2 cells (human tumor line)
[5] = target: T1, human EPN1 expressed by human cell lines; experiment: flow cytometry, PSN1 cells (human tumor line)
[6] = target: T1, human EPN1 expressed by human cell lines; experiment: flow cytometry, P29 Clone1 cells (human tumor line)
[7] = target: T1, human EPN1 expressed by human cell lines; experiment: flow cytometry, DMS114 cells (human tumor line)
[8] = target: T1, human EPN1 expressed by human cell lines; experiment: flow cytometry, HCT15 cells (human tumor line)
[9] = target: T2, EPN3 on the CDI HuProt native array (human, UniProt Q9H201 1-632, limits assumed); experiment: CDI HuProt native protein microarray (High-Spec cross-reactivity assay)
T2 sequence (looked up): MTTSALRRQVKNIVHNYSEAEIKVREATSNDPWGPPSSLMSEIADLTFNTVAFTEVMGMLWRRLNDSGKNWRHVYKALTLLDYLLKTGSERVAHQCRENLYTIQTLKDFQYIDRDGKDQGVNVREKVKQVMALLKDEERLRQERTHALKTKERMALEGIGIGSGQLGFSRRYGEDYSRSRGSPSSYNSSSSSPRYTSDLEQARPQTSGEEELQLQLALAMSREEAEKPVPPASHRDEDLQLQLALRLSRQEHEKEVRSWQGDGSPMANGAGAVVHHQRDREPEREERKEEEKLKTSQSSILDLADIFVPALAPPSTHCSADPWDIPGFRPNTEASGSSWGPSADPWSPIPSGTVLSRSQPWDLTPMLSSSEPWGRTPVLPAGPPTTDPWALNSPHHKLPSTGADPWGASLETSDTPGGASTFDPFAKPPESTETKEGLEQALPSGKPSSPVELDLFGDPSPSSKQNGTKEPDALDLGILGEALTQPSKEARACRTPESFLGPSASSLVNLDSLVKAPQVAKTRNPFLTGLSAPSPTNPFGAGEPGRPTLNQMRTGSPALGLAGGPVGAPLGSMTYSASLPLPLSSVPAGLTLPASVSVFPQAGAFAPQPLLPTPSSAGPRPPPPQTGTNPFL
Method: IMM20059 was then screened using the CDI Human Proteome (HuProt) microarry-based High-Spec antibody cross-reactivity assay. In the assay, proteins corresponding to approximately 80% of the human proteome were spotted in native format onto microarrays and used to probe specificity of IMM20059. More specifically, IMM20059 (1 μg/mL) was incubated overnight at 4° C. against the native CDI HuProt array, with EPN1 (Origene, cat #TP307099) added to the array as an additional control. Slides were washed and IMM20059 binding was detected with an Alexa-647 conjugated anti-H+L secondary antibody. Non-specific hits that were bound by the secondary were eliminated from any analysis. Selective binding to target proteins were analyzed by a combination of overall signal intensity, Z-score to determine reproducibility of binding to replicates on each slide, and S-score to determine difference in selectivity versus possible targets. An S-score >3 between the top and second-ranked hits is considered as indicative of specificity for the top hit.

[10] = target: T3, recombinant EPN1 (Origene, cat #TP307099) (human, UniProt Q9Y6I3 1-576); experiment: SPR, IMM20059 captured at 1000 RU on CM5/Protein A, EPN1 in solution, 25° C.
T3 construct: Bought protein; also called Epsin-1; Epsin 1
T3 sequence: T1 sequence
Method: IMM20059 was captured at four different surface densities (500, 1000, 2600, and 2800 RU) on a CM5/Protein A sensor chip using 10 mM HEPES, pH 7.4, 150 mM NaCl, 0.005% Tween-20, 0.2 mg/mL BSA as a running buffer. EPN1 (Origene Cat #TP307099) or EPN2 (Origene Cat #TP310899) were diluted in running buffer to both 200 nM and 20 nM and analyzed for the ability to bind to the immobilized IMM20059 at 25° C. […] However, as detailed in Table 4, the observed off-rates for binding to EPN1 were dependent upon IMM20059 surface density, with the off-rate on the 500 RU surface being 2.4-times faster than the off-rate measured on the 2800 RU density surface.

[11] = target: T1, human EPN1 expressed by human cell lines; experiment: flow cytometry, OE21 cells (human tumor line)
[12] = target: T1, human EPN1 expressed by human cell lines; experiment: flow cytometry, HCT116 cells (human tumor line)

MFI (fold mean fluorescence index above isotype control) [1]: 13 fold
MFI (fold mean fluorescence index above isotype control) [2]: 11 fold
MFI (fold mean fluorescence index above isotype control) [3]: 4 fold
MFI (fold mean fluorescence index above isotype control) [4]: 9 fold
MFI (fold mean fluorescence index above isotype control) [5]: 3 fold
MFI (fold mean fluorescence index above isotype control) [6]: 21 fold
MFI (fold mean fluorescence index above isotype control) [7]: 12 fold
MFI (fold mean fluorescence index above isotype control) [8]: 2 fold
binding result [9]: no binding (tested: 1 µg/mL IMM20059)
Kd [10]: 1.52 nM
koff [10]: 0.000454 s⁻¹
kon [10]: 298000 M⁻¹ s⁻¹
MFI (fold mean fluorescence index above isotype control) [11]: 46 fold
MFI (fold mean fluorescence index above isotype control) [12]: 5 fold
B1: IMM20059 (antibody, human IgG1, kappa, V domains shown)
VH: EVQLVESGGGLVQPGGSLRLSCAASGFTFSIHSLNWVRQAPGKGLEWVSYISSNSTTIYYADSVKGRFTISRDNAKDSLYLQMNSLRDEDTAVYYCARDYYCTGGTCFFLPDLWGRGALVTVSS
VL: EIVLTQSPATLSLSPGERATLSCRASQNISNFLAWYQHKPGQAPRLLIYDASIRATGIPARFSGSGSGTDFSLTISSLEPEDFAVYFCQQRYNWLTFGGGTKVEIKR
